From ChEMBL document CHEMBL1153304, “2,4-Diaminopyridine delta-opioid receptor agonists and their associated hERG pharmacology” (Bioorg Med Chem Lett, 2009)

Chains of the proteins cited; added tags and fusions are not shown. Lines headed by an entry give the natural chain unless they say otherwise; changes in a name come on top.
UniProt Q12809: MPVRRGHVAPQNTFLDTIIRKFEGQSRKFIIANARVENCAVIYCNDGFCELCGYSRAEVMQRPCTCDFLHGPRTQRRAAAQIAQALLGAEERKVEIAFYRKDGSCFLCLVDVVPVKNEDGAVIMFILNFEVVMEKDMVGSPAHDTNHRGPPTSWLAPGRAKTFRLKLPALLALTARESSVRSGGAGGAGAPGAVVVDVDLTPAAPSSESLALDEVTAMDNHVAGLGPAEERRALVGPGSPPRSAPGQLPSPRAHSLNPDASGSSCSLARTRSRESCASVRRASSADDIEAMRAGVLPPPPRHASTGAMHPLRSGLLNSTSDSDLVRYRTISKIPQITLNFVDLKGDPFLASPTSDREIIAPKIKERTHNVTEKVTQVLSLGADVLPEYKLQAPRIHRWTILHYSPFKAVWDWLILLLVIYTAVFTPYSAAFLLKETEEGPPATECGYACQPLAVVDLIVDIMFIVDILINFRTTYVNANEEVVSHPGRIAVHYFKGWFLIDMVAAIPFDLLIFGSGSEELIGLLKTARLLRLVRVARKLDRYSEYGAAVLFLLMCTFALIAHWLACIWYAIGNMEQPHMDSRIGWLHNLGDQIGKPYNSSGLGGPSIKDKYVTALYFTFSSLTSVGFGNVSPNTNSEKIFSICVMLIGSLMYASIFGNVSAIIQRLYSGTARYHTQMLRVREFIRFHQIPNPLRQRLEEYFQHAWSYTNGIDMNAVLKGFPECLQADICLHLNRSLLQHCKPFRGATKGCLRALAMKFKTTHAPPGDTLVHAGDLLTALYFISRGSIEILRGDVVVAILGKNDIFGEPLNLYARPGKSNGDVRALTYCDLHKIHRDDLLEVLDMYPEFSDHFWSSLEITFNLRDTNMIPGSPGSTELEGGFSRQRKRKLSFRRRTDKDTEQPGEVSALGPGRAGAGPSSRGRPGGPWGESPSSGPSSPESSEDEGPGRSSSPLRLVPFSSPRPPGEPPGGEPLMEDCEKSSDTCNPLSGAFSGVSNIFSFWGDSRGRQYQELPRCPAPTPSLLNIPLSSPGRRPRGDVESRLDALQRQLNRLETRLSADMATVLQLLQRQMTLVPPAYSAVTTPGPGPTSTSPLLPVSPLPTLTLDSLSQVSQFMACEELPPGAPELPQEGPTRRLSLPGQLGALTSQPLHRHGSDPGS

Molecular target: Voltage-gated inwardly rectifying potassium channel KCNH2 (Homo sapiens, UniProt Q12809)
Assay: Inhibition of human ERG

SMILES | pKi
Nc1ccnc(N2CCC(N(C(=O)C3CCCCC3)c3ccccn3)CC2)c1 | < 5.00
Nc1ccnc(N2CCC(NC(=O)[C@@H]3CCCO3)(c3ccccc3)CC2)c1 | < 5.00

pKi: −log10 of the molar value.
